Reference: patent publication US20080019949A1, “DIFFERENTIATION OF STEM CELLS FROM UMBILICAL CORD MATRIX INTO […] CELLS” (UNIVERSITY OF KANSAS, priority 2006, published 2008)

System: differentiated HUCM cells (hepatocyte-like cells)

- PXR expression (RT-PCR): induced
Structure (SMILES): CO[C@H]1/C=C/O[C@@]2(C)Oc3c(C)c(O)c4c(O)c(c(/C=N/N5CCN(C)CC5)c(O)c4c3C2=O)NC(=O)/C(C)=C\C=C\[C@H](C)[C@H](O)[C@@H](C)[C@@H](O)[C@@H](C)[C@H](OC(C)=O)[C@@H]1C [RIF, rifampicin]
